Experimental findings from US20220315654A1 are described below.

For orientation: IC50 means the concentration that gives 50% inhibition. A word on the EC50 (read off the curve): it is the concentration giving half of the maximal effect.

The target of assay [1] is human CD47 on cells (Raji, Nalm-6, HT-1080 tumor cells, human red blood cells) (human) (UniProt Q08722). Put plainly: inhibition of human SIRPα-mouse Fc binding to PD-L1- CD47+ Nalm-6 cells, CellInsight CX5.
The target is the same in assay [2]. Kind of assay: flow cytometry on Nalm-6 cells (CD47+, PD-L1-), detection with AF647 anti-human Fc F(ab')2. (In general: Flow cytometry measures light scatter and fluorescence of single cells or particles in a stream.)
For assay [3] the target is unchanged. Put plainly: flow cytometry on Raji cells (CD47+, PD-L1 very low), detection with AF647 anti-human Fc F(ab')2.
Assay [4] has as its target rec. cyCD47 protein (Macaca fascicularis). Kind of assay: ELISA; recombinant cynomolgus CD47 protein titrated (x axis, nM), fluorescence; format not described in the text. A general note: ELISA stands for enzyme-linked immunosorbent assay.
In assay [5] the target is human CD47 on cells (Raji, Nalm-6, HT-1080 tumor cells, human red blood cells) (human) (UniProt Q08722). Put plainly: cell-based competitive binding assay on IFNg-induced HT-1080 cells (PD-L1+ CD47+): blocked ligand human SIRPa-mouse Fc, detected with anti-mouse Fc AF647, CellInsight CX5.

Regarding anti-CD47 5F9 analog (antibody), the 50% inhibitory concentration (IC50) in assay [1] amounted to 0.025 nM. The concentration giving a half-maximal response (EC50 (read off the curve)) in assay [2] is 0.5 nM; in assay [3], 0.5 nM; in assay [4], 0.4 nM. In assay [5], this substance gave an IC50 (read off the curve) of 0.02 nM.
